{
  "sequences": {"note": "Chains of the proteins cited; added tags and fusions are not shown. A line that says so, or that is headed by a name, gives the form on record, which may keep a tag or linker.", "UniProt Q96S37, with tags, fused parts or gaps": "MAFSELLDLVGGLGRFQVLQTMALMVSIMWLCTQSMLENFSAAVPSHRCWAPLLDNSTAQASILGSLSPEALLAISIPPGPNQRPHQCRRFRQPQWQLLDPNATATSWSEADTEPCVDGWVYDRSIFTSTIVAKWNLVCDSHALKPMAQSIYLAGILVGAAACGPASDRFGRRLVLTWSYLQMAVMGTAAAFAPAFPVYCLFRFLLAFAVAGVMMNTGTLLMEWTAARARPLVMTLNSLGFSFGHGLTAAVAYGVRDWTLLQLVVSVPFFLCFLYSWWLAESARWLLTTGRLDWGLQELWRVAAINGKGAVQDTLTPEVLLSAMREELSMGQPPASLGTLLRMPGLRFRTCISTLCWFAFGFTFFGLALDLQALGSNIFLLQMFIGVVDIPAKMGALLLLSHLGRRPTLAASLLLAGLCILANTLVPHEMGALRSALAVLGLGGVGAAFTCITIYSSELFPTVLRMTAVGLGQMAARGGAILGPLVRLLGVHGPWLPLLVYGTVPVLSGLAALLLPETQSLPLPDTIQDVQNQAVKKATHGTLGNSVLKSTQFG"},
  "source": "paper PMC5048659",
  "about": "“Lesinurad, a novel, oral compound for gout, acts to decrease serum uric acid through inhibition of urate transporters in the kidney” (Arthritis Research & Therapy, 2016)",
  "key": {"URAT1": {"target": "URAT1 (Homo sapiens, UniProt Q96S37)", "test": "cell-based"}, "OAT4": {"target": "T1, OAT4 (Homo sapiens, UniProt Q9NSA0)", "T1 sequence (Q9NSA0 with tags, fused parts or gaps)": "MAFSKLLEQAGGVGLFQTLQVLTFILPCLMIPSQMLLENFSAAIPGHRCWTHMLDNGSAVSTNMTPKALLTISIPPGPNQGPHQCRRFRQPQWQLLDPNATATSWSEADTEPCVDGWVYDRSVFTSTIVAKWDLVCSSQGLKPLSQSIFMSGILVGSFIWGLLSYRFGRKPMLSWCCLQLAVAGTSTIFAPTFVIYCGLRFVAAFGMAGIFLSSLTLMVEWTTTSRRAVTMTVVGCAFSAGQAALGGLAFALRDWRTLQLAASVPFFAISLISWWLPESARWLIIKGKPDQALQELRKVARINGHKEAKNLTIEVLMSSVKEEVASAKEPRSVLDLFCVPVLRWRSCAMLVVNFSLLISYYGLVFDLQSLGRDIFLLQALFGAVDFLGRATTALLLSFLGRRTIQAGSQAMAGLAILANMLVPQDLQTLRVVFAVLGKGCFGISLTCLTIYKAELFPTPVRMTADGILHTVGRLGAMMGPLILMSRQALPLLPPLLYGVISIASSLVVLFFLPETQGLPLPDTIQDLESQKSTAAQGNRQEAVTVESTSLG", "test": "OAT4 urate transport assay in stably transfected HEK293 cells", "type": "cell-based", "conditions": "100 μM 14C-urate, 10 min, OAT4-551G cells; mean ± SEM, three experiments; read-out: Potency (IC50) against OAT4"}},
  "data": [
    {"smiles": "O=C(O)CSc1nnc(Br)n1-c1ccc(C2CC2)c2ccccc12", "note": "[Lesinurad, 2-((5-bromo-4-(4-cyclopropylnaphthalen-1-yl)-4H-1,2,4-triazol-3-yl)thio) acetic acid]", "values": [
      {"measurement": "IC50", "setting": "URAT1", "value": "3530 ± 520", "unit": "nM"},
      {"measurement": "IC50", "setting": "OAT4", "value": "2030 ± 660", "unit": "nM"}
    ]}
  ]
}
